# Experimental data from patent US20220033448A1, “METHODS FOR AGGREGATION OF PROTEINS” (priority 2011, published 2022).
# Test system: S. aureus MRSA 326
# Experiment: Neutropenic-mouse thigh model
# Settings: neutropenic mice; two i.p. injections of 30 mg/kg; sacrificed 6 hours post-infection
sequence,measurement,value
RILLGLIRRGSRILLGLIRR [C30],CFU reduction in thigh,no rapid effect on CFU reduction in thigh

# No end group written: not given here.
